Laboratory results: patent US12171769B2, “Methods, compositions, and kits for treating and/or preventing a side effect associated with radiation and/or chemotherapy exposure” (BioMimetix JV, LLC, priority 2017, dated 2024)
Entries after “also recorded” stand apart in the source; their conditions may differ.

Tested on: salivary glands
Assay: Salivary gland fibrosis quantification (Masson's trichrome, blue:red pixel ratio)
Type: in vivo, C57B1/6 mice
Conditions: 12 weeks post-RT (9 Gy); MnBuOE+RT at all levels of MnBuOE; vs control animals without RT

Substance: manganese butoxyethyl pyridyl porphyrin [BMX-001]
- fibrosis in the salivary glands (blue:red pixel ratio): not significantly different; also recorded: attenuates fibrosis
